LC retention time data for one compound are collected here from the RepoRT retention time repository (doi:10.1016/j.foodchem.2015.11.070).

The nature of this data set: Thermo Scientific Hypersil GOLD aQ, 100 × 2.1 mm, 1.9 µm, 30 °C, 0.3 mL/min, estimated dead time 0.73 min; A: water + 0.01% formic acid + 4 mM ammonium formate; B: methanol + 0.01% formic acid + 4 mM ammonium formate; gradient (min/%B) 0/5 1/5 8/100 12/100. To be noted: stereoisomer not certain.

The structures appear in SMILES notation.

As to `CCOP(=S)(OCC)Oc1ncn(-c2ccccc2)n1`, the LC retention time is 9.79 min.
